According to article PMC13482819 (2026):

B1: HA-tagged STING (wild type) [human] / Myc-tagged TBK1 [human] (parent complex)
chain 1: MPHSSLHPSIPCPRGHGAQKAALVLLSACLVTLWGLGEPPEHTLRYLVLHLASLQLGLLLNGVCSLAEELRHIHSRYRGSYWRTVRACLGCPLRRGALLLLSIYFYYSLPNAVGPPFTWMLALLGLSQALNILLGLKGLAPAEISAVCEKGNFNVAHGLAWSYYIGYLRLILPELQARIRTYNQHYNNLLRGAVSQRLYILLPLDCGVPDNLSMADPNIRFLDKLPQQTGDHAGIKDRVYSNSIYELLENGQRAGTCVLEYATPLQTLFAMSQYSQAGFSREDRLEQAKLFCRTLEDILADAPESQNNCRLIAYQEPADDSSFSLSQEVLRHLRQEEKEEVTVGSLKTSAVPSTSTMSQEPELLISGMEKPLPLRTDFS
chain 2: MQSTSNHLWLLSDILGQGATANVFRGRHKKTGDLFAIKVFNNISFLRPVDVQMREFEVLKKLNHKNIVKLFAIEEETTTRHKVLIMEFCPCGSLYTVLEEPSNAYGLPESEFLIVLRDVVGGMNHLRENGIVHRDIKPGNIMRVIGEDGQSVYKLTDFGAARELEDDEQFVSLYGTEEYLHPDMYERAVLRKDHQKKYGATVDLWSIGVTFYHAATGSLPFRPFEGPRRNKEVMYKIITGKPSGAISGVQKAENGPIDWSGDMPVSCSLSRGLQVLLTPVLANILEADQEKCWGFDQFFAETSDILHRMVIHVFSLQQMTAHKIYIHSYNTATIFHELVYKQTKIISSNQELIYEGRRLVLEPGRLAQHFPKTTEENPIFVVSREPLNTIGLIYEKISLPKVHPRYDLDGDASMAKAITGVVCYACRIASTLLLYQELMRKGIRWLIELIKDDYNETVHKKTEVVITLDFCIRNIEKTVKVYEKLMKINLEAAELGEISDIHTKLLRLSSSQGTIETSLQDIDSRLSPGGSLADAWAHQEGTHPKDRNVEKLQVLLNCMTEIYYQFKKDKAERRLAYNEEQIHKFDKQKLYYHATKAMTHFTDECVKKYEAFLNKSEEWIRKMLHLRKQLLSLTNQCFDIEEEVSKYQEYTNELQETLPQKMFTASSGIKHTMTPIYPSSNTLVEMTLGMKKLKEEMEGVVKELAENNHILERFGSLTMDGGLRNVDCL

Variants of: B1
Assay: co-immunoprecipitation (IP: HA, IB: Myc) with band densitometry; HEK293T cells, co-expression

Row | ratio to parent | Variant
1 | 7.3 | chain 1 MPHSSLHPSIPCPRGHGAQKAALVLLSACLVTLWGLGEPPEHTLRYLVLHLASLQLGLLLNGVCSLAEELRHIHSRYRGSYWRTVRACLGCPLRRGALLLLSIYFYYSLPNAVGPPFTWMLALLGLSQALNILLGLKGLAPAEISAVCEKGNFNVAHGLAWSYYIGYLRLILPELQARIRTYNQHYNNLLRGAVSQRLYILLPLDCGVPDNLSMADPNIRFLDKLPQQTGDHAGIKDRVYSNSIEELLENGQRAGTCVLEYATPLQTLFAMSQYSQAGFSREDRLEQAKLFCRTLEDILADAPESQNNCRLIAYQEPADDSSFSLSQEVLRHLRQEEKEEVTVGSLKTSAVPSTSTMSQEPELLISGMEKPLPLRTDFS [chain 1 Y245E]
2 | 6.4 | chain 1 MPHSSLHPSIPCPRGHGAQKAALVLLSACLVTLWGLGEPPEHTLRYLVLHLASLQLGLLLNGVCSLAEELRHIHSRYRGSYWRTVRACLGCPLRRGALLLLSIYFYYSLPNAVGPPFTWMLALLGLSQALNILLGLKGLAPAEISAVCEKGNFNVAHGLAWSYYIGYLRLILPELQARIRTYNQHYNNLLRGAVSQRLYILLPLDCGVPDNLSMADPNIRFLDKLPQQTGDHAGIKDRVYSNSIYELLENGQRAGTCVLEYATPLQTLFAMSQYSQAGFSREDRLEQAKLFCRTLEDILADAPESQNNCRLIAEQEPADDSSFSLSQEVLRHLRQEEKEEVTVGSLKTSAVPSTSTMSQEPELLISGMEKPLPLRTDFS [chain 1 Y314E]
